Shown are actives, neighbours in structure and some others; about 4.2% of the full set was active somewhere.
NALP1 yeast inh: NALP1 inflammasome inhibitors in reconstituted yeast, colorimetric, S. cerevisiae, triplicate retest; S. cerevisiae NALP1/ASC/caspase-1 growth, X-gal OD620, 72 h; inhibition, % at 10 µM; 0.61% of 280,000 active; in the data active means inhibition mostly above about 24%, no sharp cut-off; inactive means mostly below about 32%
Yeast UUG start: modulators of yeast start codon fidelity, primary screen, whole organism, S. cerevisiae, single point, plate reader | AID 602363, 2012 | S. cerevisiae UUG-firefly luciferase reporter, luminescence/redox ratio | activity score, % at 18.7 µM | hit rate 0.13% among 350,000;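 active = replicate mean at a twofold rise or more, about +100% in these data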;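 also: firefly luciferase made from a UUG start codon reports start codon fidelity; reporter light over untreated wells divided by growth signal over untreated wells; some hits fall short of that in this replicate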
MC4R antag cAMP: MC4R antagonists of cAMP signaling, primary screen, cell-based, TR-FRET, antagonist arm of biased-ligand search | 0.48% of 360,000 active | MC4R-expressing cells, MTII-stimulated cAMP, LANCE TR-FRET | inhibition, % at 6.5 µM | Melanocortin receptor 4 (Homo sapiens), P32245;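 active means inhibition above its plate's cutoff, the mean of tested wells on that plate plus 3 SD, cut at about 29% in these data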;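 further: 0% = Melanotan II alone and 100% = Melanotan II plus saturating MCL0020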
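Material: U2OS-MC4R stable cell line | Reagent: Melanotan II challenge after compound preincubation | Doses: One concentration, 6.5 µM nominal | Incubation: 30-min compound preincubation, 1-h Melanotan II challenge, 1-h detection, room temperature | Signal: TR-FRET cAMP assay | Replicates: One well per compound, no replicates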
HDAC3 inh: HDAC3 deacetylase inhibitors, primary screen, biochemical, fluorescence, cell-free homogeneous. inhibition, % at 8.3 µM. Histone deacetylase 3 (Homo sapiens), O15379. 0.15% of 320,000 active. recombinant HDAC3, fluorogenic peptide/trypsin coupled; in the data active means inhibition above about 26%, passing the limit was not always enough
MC4R ag barr: MC4R agonists recruiting beta-arrestin, primary screen, cell-based, luminescence, agonist arm of biased-ligand search. U2OS MC4R beta-arrestin complementation; percent of melanotan II response, DMSO zero. activation, % at 8.9 µM. 0.98% of 360,000 active. AID 540308, 2011;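 active means activation above a per-plate cutoff, the mean activation of sample wells on that plate plus 3 SD, cut at about 8% in these data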
ALR H2O2 inh: human ALR oxidase inhibition via reduced H2O2; P55789; purified ALR, DTT oxidation, H2O2 HRP-luminol luminescence; inhibition, % (concentration not given with the values); 290,000 tested, 3.8% active;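 active = mean and each replicate at 75% or more; inconclusive = only one of the two met; inactive = neither met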;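 note: stock transfer was 7.5 nL into about 7.5 µL; 0% = neutral wells and 100% = wells with inactivated enzyme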
Active calls of the source: *.

Sequences of proteins named here, by UniProt entry; tags and fusion partners are left off.
Melanocortin receptor 4 (Homo sapiens), P32245, UniProt P32245, whole entry, looked up: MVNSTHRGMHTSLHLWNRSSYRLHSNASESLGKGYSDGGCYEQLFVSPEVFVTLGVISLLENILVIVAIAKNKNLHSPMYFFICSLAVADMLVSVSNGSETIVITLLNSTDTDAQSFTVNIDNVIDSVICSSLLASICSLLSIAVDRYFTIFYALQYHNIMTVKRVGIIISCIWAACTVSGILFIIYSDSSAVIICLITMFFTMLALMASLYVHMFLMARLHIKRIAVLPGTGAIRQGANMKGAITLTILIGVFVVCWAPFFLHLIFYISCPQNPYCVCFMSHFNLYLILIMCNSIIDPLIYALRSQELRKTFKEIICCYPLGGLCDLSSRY

Screening O=C(NCCC1=CCCCC1)c1ccc2c(c1)N(Cc1ccccc1)C(=O)CS2 returned NALP1 yeast inh 38*, Yeast UUG start 2, MC4R antag cAMP 13, HDAC3 inh 15, MC4R ag barr -1 and ALR H2O2 inh -28.
For Cc1ccc(CN2CCSc3ccc(C(=O)NCc4ccco4)cc32)cc1 the results were NALP1 yeast inh 6, Yeast UUG start -3, MC4R antag cAMP 4, HDAC3 inh -9, MC4R ag barr 0 and ALR H2O2 inh 47.
`Cc1ccc(CN2CCSc3ccc(C(=O)NCCCN4CCOCC4)cc32)cc1` gave NALP1 yeast inh 15, Yeast UUG start -5, MC4R antag cAMP 5, HDAC3 inh -48, MC4R ag barr -3 and ALR H2O2 inh 98*.
`O=C(NCCCN1CCOCC1)c1ccc2c(c1)N(Cc1ccccc1)CCS2` gave NALP1 yeast inh 26, Yeast UUG start 0, MC4R antag cAMP 9, HDAC3 inh -51, MC4R ag barr -2 and ALR H2O2 inh 99*.
For O=C(NCCN1CCOCC1)c1ccc2c(c1)N(Cc1ccc(Cl)cc1)C(=O)CS2 the results were NALP1 yeast inh -4, Yeast UUG start 4, MC4R antag cAMP 4, HDAC3 inh 2, MC4R ag barr -1 and ALR H2O2 inh -4.
`CC1CC(C)CN(C(=O)c2ccc3c(c2)N(Cc2ccccc2)CCS3)C1` (stereo not drawn) gave NALP1 yeast inh 3, Yeast UUG start -18, MC4R antag cAMP 8, HDAC3 inh -6 and MC4R ag barr -1.
`CN1CCN(CCCNC(=O)c2ccc3c(c2)N(Cc2ccccc2)CCS3)CC1` gave NALP1 yeast inh 26, Yeast UUG start 3, MC4R antag cAMP 10, HDAC3 inh -93, MC4R ag barr -1 and ALR H2O2 inh 99*.
Cc1ccc(CN2CCSc3ccc(C(=O)NC4CCN(Cc5ccccc5)CC4)cc32)cc1 was read as NALP1 yeast inh 5, Yeast UUG start -4, MC4R antag cAMP 1, HDAC3 inh 8, MC4R ag barr -1 and ALR H2O2 inh 27.
For CCN1CCN(CCCNC(=O)c2ccc3c(c2)N(Cc2ccc(C)cc2)CCS3)CC1 the results were NALP1 yeast inh 25, Yeast UUG start -11, MC4R antag cAMP 3, HDAC3 inh -59, MC4R ag barr -1 and ALR H2O2 inh 99*.
`O=C(NCCN1CCOCC1)c1ccc2c(c1)N(Cc1ccccc1)CCS2` gave NALP1 yeast inh -9, Yeast UUG start -18, MC4R antag cAMP 0, HDAC3 inh -40, MC4R ag barr -1 and ALR H2O2 inh 100*.
Screening O=C(NCCN1CCOCC1)c1ccc2c(c1)N(Cc1ccccc1)C(=O)CS2 returned NALP1 yeast inh -8, Yeast UUG start -4, MC4R antag cAMP 5, HDAC3 inh 3, MC4R ag barr 0 and ALR H2O2 inh -2.
CCCC(=O)Nc1ccc2c(c1)OC[C@@H](C)N(Cc1cncnc1)C[C@@H](C)[C@@H](OC)CN(C)C2=O was read as Yeast UUG start 7.
O=C(C[C@H]1CC[C@@H](NC(=O)Nc2cc(F)ccc2F)[C@@H](CO)O1)Nc1ccccc1 was read as Yeast UUG start -7.
For CCNC(=O)C[C@H]1CC[C@H]2[C@H](COc3ccc(NC(=O)Nc4ccc(C)cc4)cc3C(=O)N2C)O1 the results were Yeast UUG start 2.
Screening C=CCOC(=O)C1=C(C)Nc2[nH]c(=O)[nH]c(=O)c2C1c1ccccc1 (stereo not drawn) returned NALP1 yeast inh 29*, MC4R antag cAMP -3, HDAC3 inh -3, MC4R ag barr -1 and ALR H2O2 inh 12.
For CCOc1ccc(CNc2ccc3c(c2)ncn3C)cc1 the results were NALP1 yeast inh 4, Yeast UUG start -13, MC4R antag cAMP 0, HDAC3 inh -5, MC4R ag barr -2 and ALR H2O2 inh 82*.
`CCOc1ccc(CNc2ccc3c(c2)ncn3C(C)(C)C)cc1` gave NALP1 yeast inh 13, Yeast UUG start 3, MC4R antag cAMP 7, HDAC3 inh -3, MC4R ag barr -1 and ALR H2O2 inh 68.
`Cn1cnc2cc(NCc3ccc(Cl)cc3)ccc21` gave NALP1 yeast inh 10, Yeast UUG start -16, MC4R antag cAMP -6, HDAC3 inh -9, MC4R ag barr -2 and ALR H2O2 inh 94*.
COC(=O)CN1C(=S)N(c2ccc(OC)cc2)C(=O)/C1=C/c1cccs1 was read as NALP1 yeast inh 12, MC4R antag cAMP -2, HDAC3 inh 1, MC4R ag barr 1 and ALR H2O2 inh 0.
CCc1ccc(N2C(=O)/C(=C/c3cccs3)N(CC(=O)OC)C2=S)cc1 was read as NALP1 yeast inh 1, Yeast UUG start -10, MC4R antag cAMP 2, HDAC3 inh 10, MC4R ag barr 9.1* and ALR H2O2 inh -7.
O=c1c(/C=N/OCc2ccc(Cl)cc2Cl)c[nH]n1-c1cccc(Cl)n1 was read as NALP1 yeast inh -9, MC4R antag cAMP 2, HDAC3 inh 0, MC4R ag barr -3 and ALR H2O2 inh 98*.
Screening COc1ccc(N=c2scc(C)n2CCCN2CCCC2=O)cc1 returned NALP1 yeast inh 7, MC4R antag cAMP -2, HDAC3 inh 8, MC4R ag barr -2 and ALR H2O2 inh 100*.
Cc1csc(=Nc2ccccc2)n1CCCN1CCCC1=O was read as NALP1 yeast inh 12, Yeast UUG start -9, MC4R antag cAMP 5, HDAC3 inh -3, MC4R ag barr 2 and ALR H2O2 inh 99*.
For Cc1csc(=Nc2ccccc2)n1C the results were NALP1 yeast inh 17, Yeast UUG start -47, MC4R antag cAMP 14, HDAC3 inh -2, MC4R ag barr -3 and ALR H2O2 inh 99*.
For Cc1cc(C(=O)NCCCN2CCCC2=O)cs1 the results were NALP1 yeast inh 27, Yeast UUG start -37, MC4R antag cAMP -1, HDAC3 inh 3, MC4R ag barr -2 and ALR H2O2 inh -2.
For CCCNC(=O)Nc1ccc2c(c1)C(=O)N(C)C[C@H](OC)[C@H](C)CN(CCC)[C@H](C)CO2 the results were Yeast UUG start -24.
`O=C(CCN1CCCCC1)NCC[C@@H]1CC[C@H](NC(=O)c2ccc(F)cc2)[C@@H](CO)O1` gave Yeast UUG start 12.
`Cc1noc(C)c1S(=O)(=O)N(C)C[C@H]1OCCCC[C@@H](C)Oc2ccc(NS(=O)(=O)c3ccc(Cl)cc3)cc2C(=O)N([C@@H](C)CO)C[C@@H]1C` gave Yeast UUG start -12.
Screening CCC(=O)N[C@@H]1CC[C@@H](CCNC(=O)Nc2ccc(F)cc2)O[C@H]1CO returned Yeast UUG start -9.

Quoted from the results shown (3 entries):
`O=C(CCN1CCCCC1)NCC[C@@H]1CC[C@H](NC(=O)c2ccc(F)cc2)[C@@H](CO)O1` gave Yeast UUG start 12.
`Cc1noc(C)c1S(=O)(=O)N(C)C[C@H]1OCCCC[C@@H](C)Oc2ccc(NS(=O)(=O)c3ccc(Cl)cc3)cc2C(=O)N([C@@H](C)CO)C[C@@H]1C` gave Yeast UUG start -12.
Screening CCC(=O)N[C@@H]1CC[C@@H](CCNC(=O)Nc2ccc(F)cc2)O[C@H]1CO returned Yeast UUG start -9.

Screening data as filed in PubChem BioAssay.
